Reference: patent US7192924B2, “Corticotropin releasing factor 2 receptor agonists” (priority 2002, dated 2007)

Columns and labels:
CRF2R = biological target: T1, CRF2R (Homo sapiens, UniProt Q13324); assay: CRF2R agonist activity (EC50, Emax), called comparative CRF binding; type: cell-based
T1 sequence (Q13324 1-411): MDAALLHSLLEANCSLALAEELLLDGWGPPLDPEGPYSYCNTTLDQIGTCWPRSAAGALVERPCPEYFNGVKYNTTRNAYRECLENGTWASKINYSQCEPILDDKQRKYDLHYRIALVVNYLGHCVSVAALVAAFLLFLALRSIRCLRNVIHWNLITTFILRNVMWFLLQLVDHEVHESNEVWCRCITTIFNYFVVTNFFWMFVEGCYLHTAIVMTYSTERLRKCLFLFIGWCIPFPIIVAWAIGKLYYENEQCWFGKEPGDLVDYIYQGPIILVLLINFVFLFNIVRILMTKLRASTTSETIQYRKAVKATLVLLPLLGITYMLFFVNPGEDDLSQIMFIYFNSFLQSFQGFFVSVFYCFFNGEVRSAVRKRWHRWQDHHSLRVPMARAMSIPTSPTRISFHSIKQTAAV
How it was run: (§1)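 Peptides were applied to cells carrying a single CRFR subtype, then cAMP levels or CRE-driven reporter expression were quantified against vehicle-treated cells.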

CRF1R = biological target: T2, CRF1R (Homo sapiens, UniProt P34998); assay: CRF1R agonist activity (EC50, Emax), called comparative CRF binding; type: cell-based
T2 sequence (P34998 24-415): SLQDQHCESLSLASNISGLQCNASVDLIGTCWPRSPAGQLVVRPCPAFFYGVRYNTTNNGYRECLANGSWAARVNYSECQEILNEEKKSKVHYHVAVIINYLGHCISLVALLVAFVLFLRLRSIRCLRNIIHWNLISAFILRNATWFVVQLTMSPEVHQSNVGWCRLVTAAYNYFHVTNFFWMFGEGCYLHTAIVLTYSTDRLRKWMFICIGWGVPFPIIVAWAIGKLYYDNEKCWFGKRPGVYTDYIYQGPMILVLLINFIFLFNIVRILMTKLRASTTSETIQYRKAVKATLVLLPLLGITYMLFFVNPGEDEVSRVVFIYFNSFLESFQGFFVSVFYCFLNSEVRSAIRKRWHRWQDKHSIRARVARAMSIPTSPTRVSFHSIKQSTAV
How it was run: as §1

**Q.** With `CC[C@H](C)[C@H](NC(=O)[C@@H](NC(=O)[C@H](CC(=O)O)NC(=O)[C@H](CC(C)C)NC(=O)[C@H](CC(C)C)NC(=O)[C@H](CC(C)C)NC(=O)[C@H](CCCNC(=N)N)NC(=O)[C@H](CC(N)=O)NC(=O)[C@H](CC(N)=O)NC(=O)[C@H](C)NC(=O)[C@H](C)NC(=O)[C@H](CCC(N)=O)NC(=O)[C@H](CCC(N)=O)NC(=O)[C@H](CCCCN)NC(=O)[C@H](CCC(=O)O)NC(=O)[C@H](CCCCN)NC(=O)[C@H](CCC(=O)O)NC(=O)[C@H](CCC(N)=O)NC(=O)[C@H](CCCCN)NC(=O)[C@H](CCC(=O)O)NC(=O)[C@@H](NC(=O)[C@H](CCC(=O)O)NC(=O)[C@@H](NC(=O)[C@H](CCSC)NC(=O)[C@H](CCCCN)NC(=O)[C@H](CCCNC(=N)N)NC(=O)[C@H](CC(C)C)NC(=O)[C@H](CC(C)C)NC(=O)[C@H](Cc1c[nH]cn1)NC(=O)[C@@H](NC(=O)[C@@H]1CCCN1C(=O)[C@H](CC(C)C)NC(=O)[C@H](CC(=O)O)NC(=O)[C@@H](NC(=O)[C@H](CO)NC(=O)[C@@H](NC(=O)[C@@H]1CCCN1C(=O)[C@@H]1CCCN1C(=O)CNC(=O)[C@@H]1CCC(=O)N1)[C@@H](C)CC)[C@@H](C)CC)[C@@H](C)CC)[C@@H](C)CC)[C@@H](C)CC)[C@@H](C)O)C(N)=O` [compound 77] as the compound, how does the EC50 (CRF2R; read-out: CRF2R EC50) read?
**A.** 43.4 nM

**Q.** And the EC50 (CRF1R; read-out: CRF1R EC50)?
**A.** > 100 nM

**Q.** What does the source list for `CC[C@H](C)[C@H](NC(=O)[C@@H](NC(=O)[C@H](CC(=O)O)NC(=O)[C@H](CC(C)C)NC(=O)[C@H](CC(C)C)NC(=O)[C@H](CC(C)C)NC(=O)[C@H](CCCNC(=N)N)NC(=O)[C@H](CC(N)=O)NC(=O)[C@H](CC(N)=O)NC(=O)[C@H](C)NC(=O)[C@H](C)NC(=O)[C@H](CCC(N)=O)NC(=O)[C@H](CCC(N)=O)NC(=O)[C@H](CCCCN)NC(=O)[C@H](CCC(=O)O)NC(=O)[C@H](CCCCN)NC(=O)[C@H](CCC(=O)O)NC(=O)[C@H](CCC(N)=O)NC(=O)[C@H](CCCCN)NC(=O)[C@H](CCC(=O)O)NC(=O)[C@@H](NC(=O)[C@H](CCC(=O)O)NC(=O)[C@@H](NC(=O)[C@H](CCSC)NC(=O)[C@H](CCCCN)NC(=O)[C@H](CCCNC(=N)N)NC(=O)[C@H](CC(C)C)NC(=O)[C@H](CC(C)C)NC(=O)[C@H](Cc1ccc(O)cc1)NC(=O)[C@@H](NC(=O)[C@@H]1CCCN1C(=O)[C@H](CC(C)C)NC(=O)[C@H](CC(=O)O)NC(=O)[C@@H](NC(=O)[C@H](CO)NC(=O)[C@@H](NC(=O)[C@@H]1CCCN1C(=O)[C@@H]1CCCN1C(=O)CNC(=O)[C@@H]1CCC(=O)N1)[C@@H](C)CC)[C@@H](C)CC)[C@@H](C)CC)[C@@H](C)CC)[C@@H](C)CC)[C@@H](C)O)C(N)=O` [compound 79]?
**A.** EC50 (CRF2R): 22.3 nM; EC50 (CRF1R): > 100 nM

**Q.** `CC[C@H](C)[C@H](NC(=O)[C@@H](NC(=O)[C@H](CC(=O)O)NC(=O)[C@H](CC(C)C)NC(=O)[C@H](CC(C)C)NC(=O)[C@H](CC(C)C)NC(=O)[C@H](CCCNC(=N)N)NC(=O)[C@H](CC(N)=O)NC(=O)[C@H](CC(N)=O)NC(=O)[C@H](C)NC(=O)[C@H](C)NC(=O)[C@H](CCC(N)=O)NC(=O)[C@H](CCC(N)=O)NC(=O)[C@H](CCCCN)NC(=O)[C@H](CCC(=O)O)NC(=O)[C@H](CCCCN)NC(=O)[C@H](CCC(=O)O)NC(=O)[C@H](CCC(N)=O)NC(=O)[C@H](CCCCN)NC(=O)[C@H](CCC(=O)O)NC(=O)[C@@H](NC(=O)[C@H](CCC(=O)O)NC(=O)[C@@H](NC(=O)[C@H](CCSC)NC(=O)[C@H](CCCCN)NC(=O)[C@H](CCCNC(=N)N)NC(=O)[C@H](CC(C)C)NC(=O)[C@H](CC(C)C)NC(=O)[C@H](CCC(N)=O)NC(=O)[C@H](CC(C)C)NC(=O)[C@@H]1CCCN1C(=O)[C@H](CC(C)C)NC(=O)[C@H](CC(=O)O)NC(=O)[C@@H](NC(=O)[C@H](CO)NC(=O)[C@@H](NC(=O)[C@@H]1CCCN1C(=O)[C@@H]1CCCN1C(=O)CNC(=O)[C@@H]1CCC(=O)N1)[C@@H](C)CC)[C@@H](C)CC)[C@@H](C)CC)[C@@H](C)CC)[C@@H](C)O)C(N)=O` [compound 80] was tested. Which EC50 (CRF2R) did it give?
**A.** 6.53 nM

**Q.** What about the EC50 (CRF1R) of the same compound?
**A.** > 100 nM

**Q.** What does the source list for `CC[C@H](C)[C@H](NC(=O)[C@H](CCC(=O)O)NC(=O)[C@@H](NC(=O)[C@H](CCSC)NC(=O)[C@H](CCCCN)NC(=O)[C@H](CCCNC(=N)N)NC(=O)[C@H](CC(C)C)NC(=O)[C@H](CC(C)C)NC(=O)[C@H](Cc1ccc(O)cc1)NC(=O)[C@H](CC(C)C)NC(=O)[C@@H]1CCCN1C(=O)[C@H](CC(C)C)NC(=O)[C@H](CC(=O)O)NC(=O)[C@@H](NC(=O)[C@H](CO)NC(=O)[C@@H](NC(=O)[C@@H]1CCCN1C(=O)[C@@H]1CCCN1C(=O)CNC(=O)[C@@H]1CCC(=O)N1)[C@@H](C)CC)[C@@H](C)CC)[C@@H](C)CC)C(=O)N[C@@H](CCC(=O)O)C(=O)N[C@@H](CCCCN)C(=O)N[C@@H](CCC(N)=O)C(=O)N[C@@H](CCC(=O)O)C(=O)N[C@@H](CCCCN)C(=O)N[C@@H](CCC(=O)O)C(=O)N[C@@H](CCCCN)C(=O)N[C@@H](CCC(N)=O)C(=O)N[C@@H](CCC(N)=O)C(=O)N[C@@H](C)C(=O)N[C@@H](C)C(=O)N[C@@H](CC(N)=O)C(=O)N[C@@H](CC(N)=O)C(=O)N[C@@H](CCCNC(=N)N)C(=O)N[C@@H](CC(C)C)C(=O)N[C@@H](CC(C)C)C(=O)N[C@@H](CC(C)C)C(=O)N[C@@H](CC(=O)O)C(=O)N[C@H](C(N)=O)[C@@H](C)O` [compound 81]?
**A.** EC50 (CRF2R; read-out: CRF2R EC50): 4.3 nM; EC50 (CRF1R; read-out: CRF1R EC50): 60.9 nM

**Q.** For `CC[C@H](C)[C@H](NC(=O)[C@@H](NC(=O)[C@H](CC(=O)O)NC(=O)[C@H](CC(C)C)NC(=O)[C@H](CC(C)C)NC(=O)[C@H](CC(C)C)NC(=O)[C@H](CCCNC(=N)N)NC(=O)[C@H](CC(N)=O)NC(=O)[C@H](CC(N)=O)NC(=O)[C@H](C)NC(=O)[C@H](C)NC(=O)[C@H](CCC(N)=O)NC(=O)[C@H](CCC(N)=O)NC(=O)[C@H](CCCCN)NC(=O)[C@H](CCC(=O)O)NC(=O)[C@H](CCCCN)NC(=O)[C@H](CCC(=O)O)NC(=O)[C@H](CCC(N)=O)NC(=O)[C@H](CCCCN)NC(=O)[C@H](CCC(=O)O)NC(=O)[C@@H](NC(=O)[C@H](CCC(=O)O)NC(=O)[C@@H](NC(=O)[C@H](CCSC)NC(=O)[C@H](CCCCN)NC(=O)[C@H](CCCNC(=N)N)NC(=O)[C@H](CC(C)C)NC(=O)[C@H](CC(C)C)NC(=O)[C@H](CCC(=O)O)NC(=O)[C@H](CC(C)C)NC(=O)[C@@H]1CCCN1C(=O)[C@H](CC(C)C)NC(=O)[C@H](CC(=O)O)NC(=O)[C@@H](NC(=O)[C@H](CO)NC(=O)[C@@H](NC(=O)[C@@H]1CCCN1C(=O)[C@@H]1CCCN1C(=O)CNC(=O)[C@@H]1CCC(=O)N1)[C@@H](C)CC)[C@@H](C)CC)[C@@H](C)CC)[C@@H](C)CC)[C@@H](C)O)C(N)=O` [compound 82], which EC50 (CRF2R; read-out: CRF2R EC50) is on record?
**A.** 10.9 nM

**Q.** And the EC50 (CRF1R; read-out: CRF1R EC50)?
**A.** 96.2 nM

**Q.** What does the source list for `CC[C@H](C)[C@H](NC(=O)[C@@H](NC(=O)[C@H](CC(=O)O)NC(=O)[C@H](CC(C)C)NC(=O)[C@H](CC(C)C)NC(=O)[C@H](CC(C)C)NC(=O)[C@H](CCCNC(=N)N)NC(=O)[C@H](CC(N)=O)NC(=O)[C@H](CC(N)=O)NC(=O)[C@H](C)NC(=O)[C@H](C)NC(=O)[C@H](CCC(N)=O)NC(=O)[C@H](CCC(N)=O)NC(=O)[C@H](CCCCN)NC(=O)[C@H](CCC(=O)O)NC(=O)[C@H](CCCCN)NC(=O)[C@H](CCC(=O)O)NC(=O)[C@H](CCC(N)=O)NC(=O)[C@H](CCCCN)NC(=O)[C@H](CCC(=O)O)NC(=O)[C@@H](NC(=O)[C@H](CCC(=O)O)NC(=O)[C@@H](NC(=O)[C@H](CCSC)NC(=O)[C@H](CCCCN)NC(=O)[C@H](CCCNC(=N)N)NC(=O)[C@H](CC(C)C)NC(=O)[C@H](CC(C)C)NC(=O)[C@H](Cc1ccc(O)cc1)NC(=O)[C@H](Cc1ccccc1)NC(=O)[C@@H]1CCCN1C(=O)[C@H](CC(C)C)NC(=O)[C@H](CC(=O)O)NC(=O)[C@@H](NC(=O)[C@H](CO)NC(=O)[C@@H](NC(=O)[C@@H]1CCCN1C(=O)[C@@H]1CCCN1C(=O)CNC(=O)[C@@H]1CCC(=O)N1)[C@@H](C)CC)[C@@H](C)CC)[C@@H](C)CC)[C@@H](C)CC)[C@@H](C)O)C(N)=O` [compound 85]?
**A.** EC50 (CRF2R; read-out: CRF2R EC50): 2.34 nM; EC50 (CRF1R; read-out: CRF1R EC50): 11 nM

**Q.** Which EC50 (CRF2R; read-out: CRF2R EC50) does the source give for `CC[C@H](C)[C@H](NC(=O)[C@H](CCCNC(=N)N)NC(=O)[C@H](C)NC(=O)[C@H](CC(N)=O)NC(=O)[C@@H](NC(=O)[C@@H](NC(=O)[C@H](C)NC(=O)[C@H](CCC(N)=O)NC(=O)[C@H](CCC(N)=O)NC(=O)[C@H](CCCCN)NC(=O)[C@H](CCC(=O)O)NC(=O)[C@H](CCCCN)NC(=O)[C@H](CCC(=O)O)NC(=O)[C@H](CCC(N)=O)NC(=O)[C@H](CCCCN)NC(=O)[C@H](CCC(=O)O)NC(=O)[C@@H](NC(=O)[C@H](CCC(=O)O)NC(=O)[C@@H](NC(=O)[C@H](CCSC)NC(=O)[C@H](CCCCN)NC(=O)[C@H](CCCNC(=N)N)NC(=O)[C@H](CC(C)C)NC(=O)[C@H](CC(C)C)NC(=O)[C@H](CCC(=O)O)NC(=O)[C@H](CC(C)C)NC(=O)[C@H](CO)NC(=O)[C@H](CC(C)C)NC(=O)[C@H](CC(=O)O)NC(=O)[C@@H](NC(=O)[C@H](CO)NC(=O)[C@@H](NC(=O)[C@@H]1CCCN1C(=O)[C@@H]1CCCN1C(=O)CNC(=O)[C@@H]1CCC(=O)N1)[C@@H](C)CC)[C@@H](C)CC)[C@@H](C)CC)[C@@H](C)CC)[C@@H](C)O)[C@@H](C)O)C(=O)N[C@@H](CC(C)C)C(=O)N[C@@H](C)C(=O)N[C@@H](CCCNC(=N)N)C(=O)N[C@H](C(N)=O)C(C)C` [compound 142] here?
**A.** 9.08 nM

**Q.** What about the EC50 (CRF1R; read-out: CRF1R EC50) of the same compound?
**A.** 43.5 nM

Read-outs that look alike come from different tables or passages of the source.
